Assay [1] deals with T1, LHCG receptor (Homo sapiens, UniProt P22888).
T1 construct: Promega (Luc2P/CRE CS188015 reporter vector); host or cells: HEK 293-T LHCGR Luciferase
As to the kind of experiment: First transfection stability: cAMP FRET after r-hLH stimulation of HEK 293T LHCGR Luciferase. The format is cell-based. The conditions noted are these: passage 17 to passage 41; three banks; 4-parameter curve. An excerpt: First transfection stability. The LHCG receptor transfection stability was indirectly evaluated through the quantification of the cAMP produced after r-hLH interaction with its receptor. HEK 293T LHCGR Luciferase, were stimulated with scalar doses of r-hLH in a 96-well plate and the quantity of cAMP present in each well was quantified using the FRET commercial kit. A 4-parameter dose-response curve was generated for each test using GraphPad Prism (v.8) software. The EC50 was chosen as the parameter to be monitored over time.

Amino acid sequences for entries named in this document (tags omitted). Residues count along the entry.
UniProt P22888, 27-699: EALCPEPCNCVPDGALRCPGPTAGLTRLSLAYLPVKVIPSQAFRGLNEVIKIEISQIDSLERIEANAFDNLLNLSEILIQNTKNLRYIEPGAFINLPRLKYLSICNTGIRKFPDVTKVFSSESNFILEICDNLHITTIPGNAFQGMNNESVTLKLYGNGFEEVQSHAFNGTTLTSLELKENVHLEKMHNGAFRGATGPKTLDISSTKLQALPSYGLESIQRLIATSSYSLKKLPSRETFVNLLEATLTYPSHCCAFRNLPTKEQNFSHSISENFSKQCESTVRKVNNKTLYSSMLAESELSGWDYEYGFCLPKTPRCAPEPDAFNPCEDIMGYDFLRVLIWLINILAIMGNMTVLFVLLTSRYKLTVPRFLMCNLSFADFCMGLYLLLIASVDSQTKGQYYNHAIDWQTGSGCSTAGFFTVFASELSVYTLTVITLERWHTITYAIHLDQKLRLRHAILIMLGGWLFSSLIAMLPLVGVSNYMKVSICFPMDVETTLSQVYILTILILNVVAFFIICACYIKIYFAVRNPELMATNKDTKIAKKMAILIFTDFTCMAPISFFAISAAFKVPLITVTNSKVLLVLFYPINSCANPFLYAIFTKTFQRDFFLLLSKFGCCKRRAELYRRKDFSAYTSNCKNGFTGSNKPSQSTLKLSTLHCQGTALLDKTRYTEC

For assay [2], the system named is HEK 293-T without transfection. As to the kind of experiment: cAMP quantification by FRET (HTRF) kit in non-transfected HEK 293-T (negative control). The format is cell-based, human. The settings on record: 30 minutes incubation. An excerpt: (§1) First transfection efficiency evaluation. In order to evaluate transfection efficiency, transfected cells were stimulated with r-hLH and cAMP production was quantified using a commercial kit based on Fluorescence Resonance Energy Transfer (FRET). The FRET commercial kit used to quantify cAMP was provided by Cisbio. The kit includes a cAMP coupled with d2 (acceptor) and an antibody anti-cAMP conjugated with a cryptate (donor, Europium). The FRET is detected by a plate reader equipped with the Homogeneous Time Resolve Fluorescence (HTRF) detector technology. All the experiments were performed according to the datasheet provided by the kit supplier.
(§2) For data interpretation, the ratio between acceptor and donor emission signals must be calculated for each individual well using the following formula: […]
(§3) All the raw data (Ratio) produced with the FRET kit, were analyzed and graphed with the statistical software GraphPad Prism. The statistical analysis performed was the Ratio Log transformation and creation of the 4PL curve.
(§4) Cells were plated in a 96 well plate at the same concentration and stimulated with different amount of r-hLH, creating a dose-response curve. As negative control, HEK 293-T without transfection were also stimulated. […] The plate was again incubated under shaking conditions for 60 minutes and finally the results were acquired at the plate reader. […]

Assay [3] addresses T1, LHCG receptor. The experiment in a line: cAMP quantification by FRET (HTRF) kit after stimulation of HEK 293-T LHCGR cells. The format is cell-based. The settings on record: 30 minutes incubation.
Text: as §1, §2, §3, §4

Assay [4] concerns the target T1, LHCG receptor. The experiment in a line: Reporter Gene Assay for r-hLH and r-hCG potency, HEK 293-T LHCGR Luciferase. The format is cell-based. The settings on record: for RGA response to hormone stimulation (dose-response): 40000 cell/well, 4-hour incubation, start 200 ng/ml r-hLH or 250 ng/ml r-hCG, 1:10 dilution; for Intercept confidence interval (linearity) / Slope confidence interval (linearity): log measured vs log theoretical relative potency, 60%-144%; for Intercept confidence interval (linearity): acceptance: encompass 0; for Slope confidence interval (linearity): acceptance: encompass 1. An excerpt:
Reporter Gene Assay: method development. A Reporter Gene Assay was set-up for r-hLH and r-hCG potency assessment using HEK 293-T LHCGR Luciferase cell line. The developed method was able to reproduce a portion of the r-hLH and r-hCG mechanism of action: the first steps of the metabolic cascade produced by the receptor binding with the hormone. The assay principle foreseen the cells plating at the same concentration (40000 cell/well) in each well of a 96 well plate and their stimulation with a starting dose of 200 ng/ml of r-hLH or 250 ng/ml of r-hCG, applying a 1:10 dilution step. After 4-hour incubation, the commercial luminescence substrate was added into each well and, after shaking, results were acquired using a plate reader. All the produced data were analyzed using GraphPad Prism software, interpolating the values of RLUs obtained in each well with the log-transformed nanograms/mL of hormone used at each dose.
Two preliminary method linearity were carried out to assess methods performance using r-hLH and r-hCG samples. the feasibility of method linearity was evaluated testing in triplicate different theoretical relative potency levels: 60%, 77%, 100%, 120%, 144%. These different potency levels were calculated starting from the concentration of 200 ng/ml of r-hLH and 250 ng/ml of r-hCG. The starting concentration for both samples was considered as standard. For each sample it was calculated the relative potency (RP %) result.
Linearity results were statistically analyzed using JMP software. JMP analysis included the generation of a graph reporting on the x axes the log Theoretical Relative Potency of tested samples (60%-77%-100%-120%-144%), and on the y axes the log Measured Relative Potency of the tested samples. A common approach to evaluate the goodness of fit of the obtained regression line is to evaluate different parameters as R2, the intercept confidence interval and the slope confidence interval. Thanks to the gained experience following multiple method validations in the laboratory, it was possible to define approximated acceptance criteria for all the parameters (Table 2).
A general note: Reporter assays use an easily measured gene product as a stand-in for the process of interest.

As for “r-hLH: recombinant human Luteinizing Hormone, such as Lutropin Alpha Drug Product”, the “EC50 monitored over time” value in the assay with LHCG receptor [1] is listed as “remained stable”. The “cAMP response to stimulation (dose-response)” value (“cAMP response to stimulation” for short) in assay [2] was “not able to produce a dose-related response”. For the same substance, in the assay with LHCG receptor [3], the “cAMP response to stimulation” value is reported as “well described dose-response curve”. Moreover, in the assay with LHCG receptor [4], the “RGA response to hormone stimulation (dose-response)” value was “well described dose-response curves”, the “Intercept confidence interval (linearity)” value was −0.74-0.32 and the “Slope confidence interval (linearity)” value is 0.93-1.16.
On to “r-hFSH: an analogue hormone of r-hLH, used to verify response specificity”, for which the “cAMP response to stimulation” value with LHCG receptor [3] was “absent”.
In the case of “r-hCG: recombinant human Chorionic Gonadotropin, such as Choriogonadotropin alfa Drug Product”, in the assay with LHCG receptor [4], the “RGA response to hormone stimulation (dose-response)” value is on record as “well described dose-response curves”, the “Intercept confidence interval (linearity)” value is given as −0.90-0.13 and the “Slope confidence interval (linearity)” value was 0.97-1.19.

These data come from US20260234566A1, “CELL LINES FOR EXPRESSION OF LHCG RECEPTOR” (Ares Trading S.A., priority 2023, published 2026).
